Experimental data from patent US8772480B2, “Inhibitors of PI3 kinase and/or mTOR” (priority 2009, dated 2014).

Molecular target: mammalian target of rapamycin (mTOR) (Homo sapiens (Human), UniProt P42345)
Conditions: read-out: mTOR IC50

Compound | IC50
COc1ccc(Nc2ncc(CN3CCN(S(C)(=O)=O)C[C@H]3C)cc2-c2nc(C)nc(N)n2)cn1 [Example 158, (R)-4-(2-(6-Methoxypyridin-3-Ylamino)-5-((2-Methyl-4-(Methylsulfonyl)Piperazin-1-yl)Methyl)Pyridin-3-yl)-6-Methyl-1,3,5-Triazin-2-Amine] | 3.28 µM
COc1ncc(Nc2ncc(CN3CCN(C(=O)N(C)C)CC3)cc2-c2nc(C)nc(N)n2)cc1F [Example 159, 4-((5-(4-Amino-6-Methyl-1,3,5-Triazin-2-yl)-6-(5-Fluoro-6-Methoxypyridin-3-Ylamino)Pyridin-3-yl)Methyl)-N,N-Dimethylpiperazine-1-Carboxamide] | > 10 µM
Cc1nc(N)nc(-c2cc(CN3CCN(C(=O)N(C)C)CC3)cnc2Nc2cnc(O)c(F)c2)n1 [Example 160, 4-((5-(4-Amino-6-Methyl-1,3,5-Triazin-2-yl)-6-(5-Fluoro-6-Hydroxypyridin-3-Ylamino)Pyridin-3-yl)Methyl)-N,N-Dimethylpiperazine-1-Carboxamide] | > 10 µM
Cc1nc(N)nc(-c2cc(CN3CCN(S(C)(=O)=O)CC3)cnc2Nc2cnc(O)c(F)c2)n1 [Example 161, 5-(3-(4-Amino-6-Methyl-1,3,5-Triazin-2-yl)-5-((4-(Methylsulfonyl)Piperazin-1-yl)Methyl)Pyridin-2-Ylamino)-3-Fluoropyridin-2-ol] | > 10 µM
CNc1nc(C)nc(-c2cc(CN3CCN(S(C)(=O)=O)CC3)cnc2Nc2ccc(OC)nc2)n1 [Example 163, 4-(2-(6-Methoxypyridin-3-Ylamino)-5-((4-(Methylsulfonyl)Piperazin-1-yl)Methyl)Pyridin-3-yl)-N,6-Dimethyl-1,3,5-Triazin-2-Amine] | > 10 µM
Cc1nc(N)nc(-c2cccnc2Nc2cccc(OC(F)F)c2)n1 [Example 164, 4-(2-(3-(Difluoromethoxy)Phenylamino)Pyridin-3-yl)-6-Methyl-1,3,5-Triazin-2-Amine] | > 10 µM
Cc1nc(N)nc(-c2cccnc2Nc2ccc3oc(C)nc3c2)n1 [Example 165, N-(3-(4-Amino-6-Methyl-1,3,5-Triazin-2-yl)Pyridin-2-yl)-2-Methylbenzo[D]Oxazol-5-Amine] | > 10 µM
COc1ccc(Nc2ncccc2-c2nc(C)nc(N)n2)cc1F [Example 166, 4-(2-(3-Fluoro-4-Methoxyphenylamino)Pyridin-3-yl)-6-Methyl-1,3,5-Triazin-2-Amine] | > 10 µM
COc1cc(Nc2ncccc2-c2nc(C)nc(N)n2)ccc1F [Example 167, 4-(2-(4-Fluoro-3-Methoxyphenylamino)Pyridin-3-yl)-6-Methyl-1,3,5-Triazin-2-Amine] | > 10 µM
Cc1nc(N)nc(-c2cccnc2Nc2ccc3c(c2)OC(F)(F)O3)n1 [Example 168, 4-(2-(2,2-Difluorobenzo[D][1,3]Dioxol-5-Ylamino)Pyridin-3-yl)-6-Methyl-1,3,5-Triazin-2-Amine] | > 10 µM
COc1ccc(Nc2ncc(-c3ccc(OC)nc3)cc2-c2nc(C)nc(N)n2)cn1 [Example 169, 5-(4-Amino-6-Methyl-1,3,5-Triazin-2-yl)-6′-Methoxy-N-(6-Methoxypyridin-3-yl)-3,3′-Bipyridin-6-Amine] | > 10 µM
COc1ccc(Nc2ncccc2-c2nc(C)nc(N)n2)cc1OC [Example 170, 4-(2-(3,4-Dimethoxyphenylamino)Pyridin-3-yl)-6-Methyl-1,3,5-Triazin-2-Amine] | > 10 µM
Cc1ccc2cc(Nc3ncccc3-c3nc(C)nc(N)n3)ccc2n1 [Example 171, N-(3-(4-Amino-6-Methyl-1,3,5-Triazin-2-yl)Pyridin-2-yl)-2-Methylquinolin-6-Amine] | > 10 µM
COc1ccc(Nc2ncc(-c3ccccn3)cc2-c2nc(C)nc(N)n2)cn1 [Example 172, 5′-(4-Amino-6-Methyl-1,3,5-Triazin-2-yl)-N-(6-Methoxypyridin-3-yl)-2,3′-Bipyridin-6′-Amine] | > 10 µM
COc1ncc(Nc2ncccc2-c2nc(C)nc(N)n2)cc1Cl [Example 173, 4-(2-(5-Chloro-6-Methoxypyridin-3-Ylamino)Pyridin-3-yl)-6-Methyl-1,3,5-Triazin-2-Amine] | > 10 µM
